What all share (format): biochemical
One test addresses JNK2 (D326A) (Homo sapiens, UniProt P45984, D326A). As to the kind of experiment: Phosphorylation of GST-c-Jun.
The target in a further test is JNK2 (C163A) (Homo sapiens, UniProt P45984, C163A). As to the kind of experiment: Phosphorylation of GST-c-Jun.
Another test concerns the target p38MAPKα (Homo sapiens, UniProt Q16539). Put plainly: MAP kinase selectivity assay, p38MAPKα.
The target of another test is JNK2 (T164A) (Homo sapiens, UniProt P45984, T164A). As to the kind of experiment: Phosphorylation of GST-c-Jun.
For a further test, the target named is JNK2 (R127A) (Homo sapiens, UniProt P45984, R127A). As to the kind of experiment: Phosphorylation of GST-c-Jun.
In a further test the target is JNK2 (W324A) (Homo sapiens, UniProt P45984, W324A). Put plainly: Phosphorylation of GST-c-Jun.
A further test concerns the target JNK2 (Homo sapiens, UniProt P45984). As to the kind of experiment: Phosphorylation of GST-c-Jun. Conditions: JNK2 WT.
The target of a further test is JNK2 (Y130A) (Homo sapiens, UniProt P45984, Y130A). As to the kind of experiment: Phosphorylation of GST-c-Jun.

Protein sequences, listed by entry. Tags and fused reporters are not part of them.
UniProt Q16539, whole entry: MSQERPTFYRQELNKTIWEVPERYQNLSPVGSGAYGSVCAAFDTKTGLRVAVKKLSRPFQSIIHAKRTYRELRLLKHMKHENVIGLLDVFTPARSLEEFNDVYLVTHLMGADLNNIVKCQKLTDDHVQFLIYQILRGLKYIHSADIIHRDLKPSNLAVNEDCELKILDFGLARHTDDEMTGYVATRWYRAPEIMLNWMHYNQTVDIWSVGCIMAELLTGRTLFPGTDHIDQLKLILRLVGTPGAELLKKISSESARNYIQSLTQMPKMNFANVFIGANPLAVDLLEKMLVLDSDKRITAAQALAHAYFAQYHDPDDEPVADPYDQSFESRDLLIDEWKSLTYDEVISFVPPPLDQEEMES

As to (−)-zuonin A, the IC50 was 2.8 ± 0.32 µM against JNK2 (D326A); 37 ± 2.5 µM at JNK2 (C163A); above 200 µM on p38MAPKα; 13.6 ± 1.5 µM on JNK2 (T164A); 14 ± 2.1 µM against JNK2 (R127A); 2.9 ± 0.17 µM against JNK2 (GST-c-Jun 2 μM). This substance showed a 50% inhibitory concentration (IC50) on JNK2 (Y130A) of 2.3 ± 0.16 µM. The “% Inhibition at 200 μM” value at JNK2 (D326A) (200 μM) amounted to 71%; at JNK2 (C163A) (200 μM), 37%; on JNK2 (T164A) (200 μM), 39%; at JNK2 (W324A), 98%; at JNK2 (Y130A) (200 μM), 95%. The “% Inhibition at Saturating (−)-zuonin A (200 μM)” value on p38MAPKα (200 μM) is 20%; on JNK2 (200 μM) it was 70%.

By IC50 is commonly meant the concentration needed to halve the response being measured. Higher therefore signals weaker potency. As a reminder, the % Inhibition is the relative decrease from the control value, in per cent. A high value points to a strong effect.
